From article PMC4786016 (Environmental science & technology, 2015)

Amino acid sequences for entries named in this document (tags omitted). A change or cut given only in a name is not applied to a line headed by its entry.
UniProt P37231: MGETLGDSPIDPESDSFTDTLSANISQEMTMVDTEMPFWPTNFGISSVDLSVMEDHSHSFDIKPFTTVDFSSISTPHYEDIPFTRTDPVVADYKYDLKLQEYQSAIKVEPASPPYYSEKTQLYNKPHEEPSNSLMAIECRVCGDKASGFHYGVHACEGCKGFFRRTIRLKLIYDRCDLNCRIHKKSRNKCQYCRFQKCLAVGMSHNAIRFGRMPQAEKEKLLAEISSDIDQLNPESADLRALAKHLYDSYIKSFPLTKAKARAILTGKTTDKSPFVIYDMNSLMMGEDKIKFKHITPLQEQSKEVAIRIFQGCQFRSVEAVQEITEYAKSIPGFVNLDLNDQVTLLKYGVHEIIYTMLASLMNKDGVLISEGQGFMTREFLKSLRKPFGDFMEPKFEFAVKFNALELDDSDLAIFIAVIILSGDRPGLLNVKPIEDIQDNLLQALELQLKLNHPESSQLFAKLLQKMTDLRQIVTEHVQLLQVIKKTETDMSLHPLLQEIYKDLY

Molecular target: human PPARγ1 (Homo sapiens, UniProt P37231)
Assay: GeneBLAzer PPARγ1 non-DA reporter gene assay

c1ccc(OP(Oc2ccccc2)Oc2ccccc2)cc1 [TPPi, triphenyl phosphite]
ATVmax: maximal activation% of the tested compounds relative to rosiglitazone: 12% | [ATVmax]: concentration of the tested compounds to induce the maximal activation%: 11 µM | efficacy (qualitative, based on ATVmax): + (key: + 7–20%; ++ 20–30%; +++ 30–40%; ++++ 40–50%; +++++ >50%)
